# Test results: PMC2581579 (The Journal of Biological Chemistry, 2008)
# B1: wild type ferritin light chain (WT-FTL) homopolymer (natural protein, human, UniProt P02792 1-175, looked up)
# chain: MSSQIRQNYSTDVEAAVNSLVNLYLQASYTYLSLGFYFDRDDVALEGVSHFFRELAEEKREGYERLLKMQNQRGGRALFQDIKKPAEDEWGKTPDAMKAAMALEKKLNQALLDLHALGSARTDPHLCDFLETHFLDEEVKLIKKMGDHLTNLHRLGGPEAGLGEYLFERLTLKHD
# Biological target: the molecule itself
# Test: SEC
protein,measurement,value
B1,stoichiometry N,24
